Data as given in ChEMBL document CHEMBL1147769, “Synthesis and biological activity of the first cyclic biphalin analogues” (Bioorg Med Chem Lett, 2006).

Chains of the proteins cited; added tags and fusions are not shown.
UniProt P41143, whole entry: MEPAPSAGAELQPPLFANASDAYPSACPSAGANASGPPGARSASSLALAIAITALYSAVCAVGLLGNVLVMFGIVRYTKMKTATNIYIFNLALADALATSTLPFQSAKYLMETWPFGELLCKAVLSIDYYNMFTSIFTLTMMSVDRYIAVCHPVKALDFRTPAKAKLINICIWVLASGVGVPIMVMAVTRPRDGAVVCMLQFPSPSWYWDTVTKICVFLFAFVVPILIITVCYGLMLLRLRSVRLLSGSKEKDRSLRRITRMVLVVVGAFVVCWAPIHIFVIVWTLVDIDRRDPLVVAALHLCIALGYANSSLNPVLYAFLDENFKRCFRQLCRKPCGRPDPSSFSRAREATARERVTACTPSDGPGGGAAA

Target: Delta-type opioid receptor (Homo sapiens, UniProt P41143)
Assay: Agonistic efficacy at human delta opioid receptor by [35S]GTP-gammaS binding assay
Assay type: functional
How it was run: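 Cells expressing human DOR (delta) or rat MOR (mu) incubated with increasing test-compound concentrations and 0.1 nM [35S]GTP-gamma-S in assay buffer, duplicates, 90 min at 30 °C. Stopped by vacuum filtration through GF/B filters pretreated with assay buffer, then four washes with ice-cold 15 mM Tris/120 mM NaCl pH 7.4. Bound radioactivity counted by liquid scintillation after overnight extraction; Emax read as agonist-stimulated binding.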

C[C@@H](NC(=O)[C@@H](N)Cc1ccc(O)cc1)C(=O)NCC(=O)N[C@@H](Cc1ccccc1)C(=O)NNC(=O)[C@H](Cc1ccccc1)NC(=O)CNC(=O)[C@@H](C)NC(=O)[C@@H](N)Cc1ccc(O)cc1 [BIPHALIN]
IC50: 2.5 nM
